Target: Glutamate receptor ionotropic, NMDA 1/2C/3B (Homo sapiens, UniProt O60391+Q05586+Q14957)

Sequences of proteins named here, by UniProt entry; tags and fusion partners are left off. A change or cut given only in a name is not applied to a line headed by its entry.
UniProt O60391: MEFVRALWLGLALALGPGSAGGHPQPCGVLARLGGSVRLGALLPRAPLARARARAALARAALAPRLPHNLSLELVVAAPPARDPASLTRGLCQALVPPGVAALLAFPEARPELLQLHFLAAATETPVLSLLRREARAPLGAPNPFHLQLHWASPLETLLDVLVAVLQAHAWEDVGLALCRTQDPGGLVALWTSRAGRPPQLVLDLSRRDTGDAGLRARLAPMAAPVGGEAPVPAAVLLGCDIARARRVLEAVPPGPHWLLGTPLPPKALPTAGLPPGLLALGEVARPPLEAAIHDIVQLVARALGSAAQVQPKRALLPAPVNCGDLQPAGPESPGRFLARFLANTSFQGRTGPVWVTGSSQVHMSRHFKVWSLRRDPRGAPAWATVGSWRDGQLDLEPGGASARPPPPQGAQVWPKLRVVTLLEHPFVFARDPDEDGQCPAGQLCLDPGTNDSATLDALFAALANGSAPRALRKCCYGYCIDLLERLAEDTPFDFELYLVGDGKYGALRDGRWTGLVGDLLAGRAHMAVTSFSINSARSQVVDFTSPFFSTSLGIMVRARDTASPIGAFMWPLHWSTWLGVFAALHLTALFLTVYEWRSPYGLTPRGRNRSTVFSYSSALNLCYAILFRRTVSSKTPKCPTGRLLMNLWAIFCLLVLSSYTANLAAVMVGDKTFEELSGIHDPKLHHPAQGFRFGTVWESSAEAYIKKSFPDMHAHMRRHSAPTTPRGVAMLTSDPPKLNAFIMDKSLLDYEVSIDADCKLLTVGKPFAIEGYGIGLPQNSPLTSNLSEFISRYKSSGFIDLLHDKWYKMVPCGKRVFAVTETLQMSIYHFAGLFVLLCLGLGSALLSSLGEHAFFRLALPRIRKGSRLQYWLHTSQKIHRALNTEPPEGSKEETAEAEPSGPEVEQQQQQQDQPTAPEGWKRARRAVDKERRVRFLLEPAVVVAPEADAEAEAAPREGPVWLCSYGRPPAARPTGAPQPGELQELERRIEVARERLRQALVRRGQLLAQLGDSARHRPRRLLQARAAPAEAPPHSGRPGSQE
UniProt Q14957: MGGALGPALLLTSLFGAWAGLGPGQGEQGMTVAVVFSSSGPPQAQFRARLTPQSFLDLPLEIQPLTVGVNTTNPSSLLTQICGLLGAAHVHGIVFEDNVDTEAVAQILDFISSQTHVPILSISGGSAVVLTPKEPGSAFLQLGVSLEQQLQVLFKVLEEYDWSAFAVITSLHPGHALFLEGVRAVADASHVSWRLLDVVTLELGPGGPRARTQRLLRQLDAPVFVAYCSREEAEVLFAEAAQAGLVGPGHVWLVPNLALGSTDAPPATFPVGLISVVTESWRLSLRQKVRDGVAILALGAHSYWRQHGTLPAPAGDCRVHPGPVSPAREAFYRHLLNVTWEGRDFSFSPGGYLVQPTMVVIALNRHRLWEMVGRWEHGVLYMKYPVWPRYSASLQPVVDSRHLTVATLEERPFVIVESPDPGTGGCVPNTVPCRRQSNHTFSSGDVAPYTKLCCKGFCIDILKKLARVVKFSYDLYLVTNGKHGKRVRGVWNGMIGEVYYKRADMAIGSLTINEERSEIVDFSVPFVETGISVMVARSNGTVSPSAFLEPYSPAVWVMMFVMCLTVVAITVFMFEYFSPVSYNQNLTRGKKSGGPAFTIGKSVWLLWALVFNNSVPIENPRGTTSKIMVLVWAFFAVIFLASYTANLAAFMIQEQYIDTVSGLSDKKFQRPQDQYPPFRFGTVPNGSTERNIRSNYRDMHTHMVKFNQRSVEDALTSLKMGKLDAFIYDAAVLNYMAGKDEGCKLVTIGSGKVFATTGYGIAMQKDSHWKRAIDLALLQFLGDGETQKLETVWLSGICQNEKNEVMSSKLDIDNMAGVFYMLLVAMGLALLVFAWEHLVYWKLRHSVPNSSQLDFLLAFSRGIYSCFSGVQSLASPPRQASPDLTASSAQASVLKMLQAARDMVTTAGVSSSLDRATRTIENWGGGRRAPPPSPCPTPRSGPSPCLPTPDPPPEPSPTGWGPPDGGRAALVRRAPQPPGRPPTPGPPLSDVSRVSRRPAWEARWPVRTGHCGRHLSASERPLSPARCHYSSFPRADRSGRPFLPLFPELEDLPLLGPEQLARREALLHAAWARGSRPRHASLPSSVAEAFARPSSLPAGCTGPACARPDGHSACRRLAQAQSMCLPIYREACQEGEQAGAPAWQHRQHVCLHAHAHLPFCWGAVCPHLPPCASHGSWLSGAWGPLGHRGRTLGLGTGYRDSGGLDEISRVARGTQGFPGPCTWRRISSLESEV

Molecule `N[C@H](CNC(=O)c1cc2nccc(Br)c2s1)C(=O)O` has a Ki of 63 nM.

From ChEMBL document CHEMBL5729369, “Modulators of the NMDA receptor” (2022)
